Our source for the Kd values is paper PMC3124085 (Structure (London, England : 1993), 2010).

The chains behind the UniProt entries cited, without tags or fusion partners. Where a name states a change or a piece, a line headed by the entry shows the natural chain unless it says otherwise.
UniProt Q99816: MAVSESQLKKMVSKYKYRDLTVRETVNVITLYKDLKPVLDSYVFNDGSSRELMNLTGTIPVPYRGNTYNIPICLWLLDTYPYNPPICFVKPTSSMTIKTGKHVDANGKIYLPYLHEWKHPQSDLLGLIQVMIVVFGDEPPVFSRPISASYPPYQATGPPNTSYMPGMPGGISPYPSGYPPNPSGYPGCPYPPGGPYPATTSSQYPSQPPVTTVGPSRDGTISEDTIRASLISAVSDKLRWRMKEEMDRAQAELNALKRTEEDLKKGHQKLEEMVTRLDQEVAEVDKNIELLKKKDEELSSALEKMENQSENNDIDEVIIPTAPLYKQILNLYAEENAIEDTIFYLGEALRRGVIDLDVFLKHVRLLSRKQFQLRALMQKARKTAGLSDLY

Ends that are not written are not given here.

The target of the experiment is human TSG101 UEV domain (residues 2-145), wild type (human) (UniProt Q99816). In words: ITC. On the technique in general: Isothermal titration calorimetry measures the heat released or taken up as one component is titrated into another.

With Ac-PTPSAPVPL [Hrs PSAP motif nonapeptide (residues 346-354 of human Hrs) …], the Kd – broadly, the concentration at which binding is half-saturated – amounted to 290 µM.
